The results in this text go back to patent publication US20150005237A1 (UNIVERSIT T INNSBRUCK, published 2015).

In this test the target is T1, PKA regulatory subunit RIIβ (rat, type IIβ) fused to Venus YFP PCA fragment F[2] (rat, UniProt P12369).
T1 construct: Expressed in COS7 or HEK293 cells from pcDNA3.1; also called RIIβ-F[2]; RegIIβ; not shown: Venus variant of yellow fluorescent protein (YFP), C-terminal fragment F[2], amino acids 159-239
As to the kind of experiment: Venus YFP protein-fragment complementation assay in COS7 cells.

B1: Gαi1 fused to Venus YFP PCA fragment F[1] (other, UniProt B2RSH2 1-354, looked up)
chain: MGCTLSAEDKAAVERSKMIDRNLREDGEKAAREVKLLLLGAGESGKSTIVKQMKIIHEAGYSEEECKQYKAVVYSNTIQSIIAIIRAMGRLKIDFGDSARADDARQLFVLAGAAEEGFMTAELAGVIKRLWKDSGVQACFNRSREYQLNDSAAYYLNDLDRIAQPNYIPTQQDVLRTRVKTTGIVETHFTFKDLHFKMFDVGGQRSERKKWIHCFEGVTAIIFCVALSDYDLVLAEDEEMNRMHESMKLFDSICNNKWFTDTSIILFLNKKDLFEEKIKKSPLTICYPEYAGSNTYEEAAAYIQCQFEDLNKRKDTKEIYTHFTCATDTKNVQFVFDAVTDVIIKNNLKDCGLF
notes: Prey fused to F[1]; also called Gαi isoform 1 prey; not shown: Venus variant of yellow fluorescent protein (YFP), N-terminal fragment F[1], amino acids 1-158
B1: the binding result is listed as “binds”.
